Values quoted from earlier work in article PMC5601360 (Journal of Medicinal Chemistry, 2017).

Test system: acetic acid-induced writhing in CD1 mice
Conditions: sc, writhing assay, ref 9a; cited from earlier work

Compound: CN(C(=O)Cc1ccc(Cl)c(Cl)c1)[C@@H]1CCCC[C@H]1N1CCCC1
- antinociceptive ED50 (95% CI): 1.54 (0.74–3.20) mg/kg
